Assay results reported in patent US20170333564.

Target: T1, P2, myr-KYCCSRK (hBVR-based peptide)
T1 chain: KYCCSRK

B1: Insulin receptor β-subunit (IRK), purified, from Enzo Life Sciences (protein)
chain: RKRQPDGPLGPLYASSNPEYLSASDVFPCSVYVPDEWEVSREKITLLRELGQGSFGMVYEGNARDIIKGEAETRVAVKTVNESASLRERIEFLNEASVMKGFTCHHVVRLLGVVSKGQPTLVVMELMAHGDLKSYLRSLRPEAENNPGRPPPTLQEMIQMAAEIADGMAYLNAKKFVHRDLAARNCMVAHDFTVKIGDFGMTRDIYETDYYRKGGKGLLPVRWMAPESLKDGVFTTSSDMWSFGVVLWEITSLAEQPYQGLSNEQVLKFVMDGGYLDQPDNCPERVTDLMRMCWQFNPKMRPTFLEIVNLLKDDLHPSFPEVSFFHSEENKAPESEELEMEFEDMENVPLDRSSHCQREEAGGRDGGSSLGFKRSYEEHIPYTHMNGGKKNGRILTLPRSNPS
IRK kinase assay in vitro, peptide as substrate and activator: P2 is both a substrate and activator of IRK kinase activity in vitro
